This passage reports IC50 results from patent publication EP1137644B9, “BENZOFURAN DERIVATIVES, THEIR PREPARATION AND USE” (H. Lundbeck A/S, priority 1998, dated 2000).

pIC50: −log10 of the molar value.

The assay concerns serotonin reuptake. Briefly: Inhibition of 3H-5-HT uptake into rat brain synaptosomes. The assay is classed as biochemical. The conditions noted are these: ^3H-5-HT accumulation into whole rat brain synaptosomes. Here is the method:
The compounds of the invention have also been tested for their effect on re-uptake of serotonin in the following test:
Inhibition of ^3H-5-HT Uptake Into Rat Brain Synaptosomes
Using this method, the ability of drugs to inhibit the accumulation of ^3H-5-HT into whole rat brain synaptosomes is determined in vitro. The assay was performed as described by Hyttel, J., Psychopharmacology 1978, 60, 13.

In turn, `Fc1ccc([C@@H]2CCNC[C@H]2COc2ccc3c(c2)OCO3)cc1` [Paroxetine, reference compound] gave a pIC50 of 9.54.

In general, pIC50 refers to −log10 of the IC50, conventionally taken in molar units. The low end stands for a high IC50, the high end for a low IC50.
